The list shows a part of the results, in another mix than the full data. The source holds several records for some structures; these can differ, active in one and inactive in another. Activity calls are given as the source filed them. Rule as the data show it: active = growth inhibition above about 70%; inactive = the rest.

A short description of the assay: NCI Yeast Anticancer Drug Screen. Data for the CLN2oe strain (AID 163).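 Also: 0% = growth of vehicle-only control cultures.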 Conditions: S. cerevisiae CLN2oe strain, stronger effect = higher value. On the procedure:
Growth inhibition of yeast strains with defined genetic alterations is measured as a screen for potential anti-cancer activity. Selected strains with alterations in DNA damage repair or cell cycle control were exposed to compounds and growth inhibition was measured relative to vehicle treated controls. The strain used in this assay is CLN2oe

For `ClCCN1CCCCC1CCl` (stereo not given), the growth inhibition (at 1.2 µM) was inactive: -1%; the growth inhibition (at 3.7 µM) was inactive: -5%; the growth inhibition (at 11.0 µM) is inactive: -1%; the growth inhibition (at 33.0 µM) was inactive: -1%; the growth inhibition (at 100.0 µM) is inactive: 27%.
Consider `Cn1cnc([N+](=O)[O-])c1C[N+](C)(CCCl)CCCl`, for which the growth inhibition by setting is: (at 1.2 µM) inactive: -29%; (at 3.7 µM) inactive: -36%; (at 11.0 µM) inactive: -12%; (at 33.0 µM) inactive: 14%; (at 100.0 µM) inactive: 50%.
For `COc1ccc([N+](=O)[O-])c(C[N+](C)(CCCl)CCCl)c1`, the growth inhibition reads like this: (at 1.2 µM) inactive: 2%; (at 3.7 µM) inactive: 0%; (at 11.0 µM) inactive: -4%; (at 33.0 µM) inactive: 6%; (at 100.0 µM) inactive: 20%.
Take `Cc1ccc([N+](=O)[O-])c(C[N+](C)(CCCl)CCCl)c1`: the growth inhibition is inactive: -15% (at 1.2 µM); inactive: -8% (at 3.7 µM); inactive: -8% (at 11.0 µM); inactive: 6% (at 33.0 µM); inactive: 66% (at 100.0 µM).
With `Cc1cccc(C[N+](C)(CCCl)CCCl)c1[N+](=O)[O-]`, the growth inhibition reads like this: (at 1.2 µM) inactive: 10%; (at 3.7 µM) inactive: -8%; (at 11.0 µM) inactive: 2%; (at 33.0 µM) inactive: 20%; (at 100.0 µM) active: 70%.
In the same order, the values of `COc1ccc(C[N+](C)(CCCl)CCCl)c([N+](=O)[O-])c1` are inactive: -2%, inactive: -6%, inactive: -4%, inactive: -3% and inactive: 3%.

The values above are taken from PubChem BioAssay (NCI).
